Values of other authors, collected in patent US4921695A, “Antianginal plate for treating ischemic heart disease” (dated 1990).
Some compounds may have been tested in ways that are not shown here.

Details: tablets per os

O=[N+]([O-])OCC(CO[N+](=O)[O-])(CO[N+](=O)[O-])CO[N+](=O)[O-]
Form in which active principle reaches the blood: inactivated form
